Legend:
D. melanogaster nAChRs = experiment: Comparison of agonist activity between nAChRs expressed in X. laevis oocytes (one-way ANOVA, Kruskal-Wallis); type: cell-based; conditions: Dα3/Dβ1 vs Dα1/Dβ1 nAChR
Description: We minimised the use of X. laevis according to the UK Animals (Scientific Procedures) Act, 1986. […] Oocytes were defolliculated after collagenase treatment in Ca^2+-free standard oocyte saline (Ca^2+-free SOS). cRNAs of the nAChR subunits and co-factors mixed at a concentration of 0.1 mg/mL was injected into oocytes at a volume of 50 nL. Then the oocytes were incubated in the incubation medium (SOS supplemented with sodium pyruvate (Nacalai Tesque, #13058–12), penicillin-streptomycin (MilliporeSigma, #P4333), gentamycin (Nacalai Tesque, #16672–04), and 4% horse serum (Thermo Fisher Scientific, #26050–070) for 3−4 days prior to electrophysiology.
Each defolliculated X. laevis oocyte was secured in a Perspex recording chamber and perfused with the standard oocyte saline (SOS) containing 0.5 μM atropine (SOSA) at a flow rate of 7−10 mL/min [48]. Two glass electrodes filled with 2 M KCl were impaled into each oocyte and the membrane potential was clamped at -100 mV. […] The peak amplitude of the response was measured and analysed by pCLAMP (Molecular Devices, USA).
Y=Imax/1+10^(logEC50‐X)nH
Where Y is the normalised response, X is log[ligand (M)], EC50 is the half maximal concentration (M), Imax is the maximum normalised response and nH is the Hill coefficient.
Prism software was employed for the statistical analyses. […]

D. melanogaster = conditions: in vivo; cited from earlier work

## O=[N+]([O-])NC1=NCCN1Cc1ccc(Cl)nc1 [Imidacloprid, imidacloprid]
D. melanogaster nAChRs
  EC50 value for the Dα3/Dβ1 nAChR lower than that for the Dα1Dβ1 nAChR: 14.4 fold
D. melanogaster
  resistance level, effect of double knockouts: reduced

From article PMC9934367, “Functional impact of subunit composition and compensation on Drosophila melanogaster nicotinic receptors–targets of neonicotinoids” (PLOS Genetics, 2023)
